These results are taken from paper PMC11904713 (ACS Omega, 2025).

Chains of the proteins cited; added tags and fusions are not shown. Residues count along the entry.
UniProt P06276, 29-602: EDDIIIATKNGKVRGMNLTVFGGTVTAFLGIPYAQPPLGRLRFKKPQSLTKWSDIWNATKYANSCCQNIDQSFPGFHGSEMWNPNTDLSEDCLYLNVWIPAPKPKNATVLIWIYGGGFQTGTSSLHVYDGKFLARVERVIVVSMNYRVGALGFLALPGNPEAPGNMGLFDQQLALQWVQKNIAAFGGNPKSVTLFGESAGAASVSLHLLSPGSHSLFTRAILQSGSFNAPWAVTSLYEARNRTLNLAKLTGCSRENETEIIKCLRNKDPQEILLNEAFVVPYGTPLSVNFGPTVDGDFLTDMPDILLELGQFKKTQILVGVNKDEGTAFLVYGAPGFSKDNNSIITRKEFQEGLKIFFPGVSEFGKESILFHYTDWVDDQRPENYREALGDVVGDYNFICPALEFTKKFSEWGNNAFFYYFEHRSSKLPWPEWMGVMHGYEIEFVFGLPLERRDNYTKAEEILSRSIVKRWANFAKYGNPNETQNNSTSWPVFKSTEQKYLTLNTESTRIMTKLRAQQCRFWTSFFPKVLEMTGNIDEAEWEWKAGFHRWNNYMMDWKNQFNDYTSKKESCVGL

Each structure is given as a SMILES string.

The target in the assay is human BChE (hBChE) (Homo sapiens, UniProt P06276). Nature of the assay: hBChE enzyme inhibition and kinetics. In kind it is biochemical.

For orientation: IC50 means the concentration that gives 50% inhibition.

With `CCN(C)C(=O)Oc1cccc([C@H](C)N(C)C)c1` [rivastigmine], the IC50 came to 266 nM.
